# Data as given in PubChem BioAssay AID999 (SRMLSC, 2007).
# Only a part is listed here, and it is no random draw. Active and inactive are the calls of the source.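 The calls were made as follows: active = viability at or below 21.59%, 3 SD under the median of tested compounds; inactive = the rest.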
# Assay: viability loss in PTEN-deleted cells – cell-based, validation, diverse DP compound set (AID 999);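 also: 100% = median luminescence of untreated cell control wells and 0% = no signal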
# Details: HCT116 PTEN-null viability, CellTiter-Glo, 60 h; at 10 µM; stronger effect = lower value
compound,measurement,value
CN(C(=O)Cc1ccc(Cl)c(Cl)c1)[C@H]1CCCC[C@@H]1N1CCCC1,viability,inactive: 92.7%
